Assay [1] addresses Acetylcholinesterase (Homo sapiens, UniProt P22303). As to the kind of experiment: Concentration required to inhibit 50% of acetylcholinesterase (AChE) in human erythrocyte(RBC).
Assay [2] concerns the target T1, Acetylcholinesterase (Electrophorus electricus, UniProt O42275). As to the kind of experiment: Compound was tested for the competitive inhibition of phosphorylation of Eel acetylcholinesterase (AChE).
Assay [3] concerns the target Acetylcholinesterase (Bos taurus, UniProt P23795). As to the kind of experiment: Inhibition of acetylcholinesterase (AChE) in bovine erythrocyte(RBC).
For assay [4], the target named is T1, Acetylcholinesterase. As to the kind of experiment: Inhibition of eel acetylcholinesterase (AChE) activity by 50%.
For assay [5], the target named is T2, Muscarinic acetylcholine receptor (UniProt P12657+P32211+Q920H4+Q9ERZ3+Q9ERZ4). As to the kind of experiment: Compound was tested for the binding affinity towards muscarinic acetylcholine receptor in mouse brain membrane.
The target in assay [6] is T2, Muscarinic acetylcholine receptor. As to the kind of experiment: Compound was tested for the binding affinity towards muscarinic receptor in mouse brain membrane.

Chains of the proteins cited; added tags and fusions are not shown. Lines headed by an entry give the natural chain unless they say otherwise; changes in a name come on top. Residues count along the entry.
UniProt P22303, 32-614 limits assumed: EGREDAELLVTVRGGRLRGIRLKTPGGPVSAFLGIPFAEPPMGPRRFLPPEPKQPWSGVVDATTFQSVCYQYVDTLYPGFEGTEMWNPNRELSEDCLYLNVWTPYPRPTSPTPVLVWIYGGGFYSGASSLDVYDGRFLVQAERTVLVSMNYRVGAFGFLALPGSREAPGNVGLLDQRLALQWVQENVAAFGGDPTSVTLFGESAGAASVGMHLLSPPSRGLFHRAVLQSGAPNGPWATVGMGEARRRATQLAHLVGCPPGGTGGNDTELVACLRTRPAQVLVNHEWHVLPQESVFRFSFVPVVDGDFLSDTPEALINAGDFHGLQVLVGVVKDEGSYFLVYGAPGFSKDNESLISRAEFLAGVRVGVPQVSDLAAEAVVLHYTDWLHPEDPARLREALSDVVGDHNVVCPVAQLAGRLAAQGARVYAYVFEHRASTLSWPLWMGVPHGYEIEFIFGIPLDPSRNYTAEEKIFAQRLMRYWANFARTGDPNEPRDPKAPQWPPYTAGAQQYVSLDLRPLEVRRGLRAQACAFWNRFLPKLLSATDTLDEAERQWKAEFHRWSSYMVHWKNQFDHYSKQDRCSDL
UniProt O42275, 24-633 limits assumed: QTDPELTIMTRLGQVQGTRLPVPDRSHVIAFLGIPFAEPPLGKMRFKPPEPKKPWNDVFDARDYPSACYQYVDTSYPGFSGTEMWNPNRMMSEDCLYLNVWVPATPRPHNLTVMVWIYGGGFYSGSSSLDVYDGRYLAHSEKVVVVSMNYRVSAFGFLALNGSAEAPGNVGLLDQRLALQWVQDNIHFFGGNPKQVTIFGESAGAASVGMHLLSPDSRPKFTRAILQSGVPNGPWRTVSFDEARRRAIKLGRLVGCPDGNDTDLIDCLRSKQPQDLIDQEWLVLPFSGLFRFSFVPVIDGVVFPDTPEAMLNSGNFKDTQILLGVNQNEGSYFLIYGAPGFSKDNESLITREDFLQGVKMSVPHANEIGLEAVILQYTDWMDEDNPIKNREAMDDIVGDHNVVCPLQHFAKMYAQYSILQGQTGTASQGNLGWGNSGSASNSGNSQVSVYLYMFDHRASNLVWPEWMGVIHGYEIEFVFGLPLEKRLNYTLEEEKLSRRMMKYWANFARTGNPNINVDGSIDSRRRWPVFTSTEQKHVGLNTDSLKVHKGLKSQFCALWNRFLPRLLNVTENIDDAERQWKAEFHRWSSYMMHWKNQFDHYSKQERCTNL
UniProt P23795, 31-613 limits assumed: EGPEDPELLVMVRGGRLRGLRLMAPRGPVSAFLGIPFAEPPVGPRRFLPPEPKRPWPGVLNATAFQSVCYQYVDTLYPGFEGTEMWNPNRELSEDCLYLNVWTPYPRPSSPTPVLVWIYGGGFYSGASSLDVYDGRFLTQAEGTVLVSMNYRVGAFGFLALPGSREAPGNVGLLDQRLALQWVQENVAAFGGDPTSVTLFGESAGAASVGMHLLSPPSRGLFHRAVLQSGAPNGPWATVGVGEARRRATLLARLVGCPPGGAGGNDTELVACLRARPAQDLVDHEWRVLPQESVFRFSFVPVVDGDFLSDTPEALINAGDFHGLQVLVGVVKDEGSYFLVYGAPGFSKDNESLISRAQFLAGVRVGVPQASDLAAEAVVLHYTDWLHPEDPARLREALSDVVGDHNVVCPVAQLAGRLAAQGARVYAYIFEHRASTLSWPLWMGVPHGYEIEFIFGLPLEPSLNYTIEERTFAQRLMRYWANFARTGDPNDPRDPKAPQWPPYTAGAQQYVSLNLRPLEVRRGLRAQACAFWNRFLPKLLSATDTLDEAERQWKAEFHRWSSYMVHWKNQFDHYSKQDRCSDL
UniProt P12657: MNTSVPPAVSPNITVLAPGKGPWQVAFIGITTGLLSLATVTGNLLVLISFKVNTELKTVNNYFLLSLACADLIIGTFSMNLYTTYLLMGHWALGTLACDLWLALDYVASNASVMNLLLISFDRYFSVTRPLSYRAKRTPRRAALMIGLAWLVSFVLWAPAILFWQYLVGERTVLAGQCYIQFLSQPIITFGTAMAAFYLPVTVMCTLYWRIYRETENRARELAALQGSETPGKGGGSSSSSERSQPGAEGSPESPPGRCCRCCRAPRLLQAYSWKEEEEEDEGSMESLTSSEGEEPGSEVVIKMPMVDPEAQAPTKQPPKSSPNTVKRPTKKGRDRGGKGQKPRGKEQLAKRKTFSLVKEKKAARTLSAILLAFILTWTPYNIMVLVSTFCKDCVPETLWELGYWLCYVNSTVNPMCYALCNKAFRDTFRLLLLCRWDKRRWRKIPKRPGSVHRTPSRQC
UniProt P32211: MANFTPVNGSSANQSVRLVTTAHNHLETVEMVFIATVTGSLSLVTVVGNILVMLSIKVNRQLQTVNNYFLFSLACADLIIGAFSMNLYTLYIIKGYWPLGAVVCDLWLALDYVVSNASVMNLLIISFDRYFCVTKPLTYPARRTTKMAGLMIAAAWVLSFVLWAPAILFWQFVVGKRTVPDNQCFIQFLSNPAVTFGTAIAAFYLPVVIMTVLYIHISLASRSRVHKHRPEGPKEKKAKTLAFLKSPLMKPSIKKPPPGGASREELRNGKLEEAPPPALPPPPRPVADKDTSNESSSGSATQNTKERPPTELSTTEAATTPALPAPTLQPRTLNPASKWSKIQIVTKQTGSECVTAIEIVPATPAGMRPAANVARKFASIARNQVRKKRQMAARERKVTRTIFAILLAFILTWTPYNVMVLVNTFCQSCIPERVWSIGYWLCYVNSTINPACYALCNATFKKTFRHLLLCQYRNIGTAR
UniProt Q920H4: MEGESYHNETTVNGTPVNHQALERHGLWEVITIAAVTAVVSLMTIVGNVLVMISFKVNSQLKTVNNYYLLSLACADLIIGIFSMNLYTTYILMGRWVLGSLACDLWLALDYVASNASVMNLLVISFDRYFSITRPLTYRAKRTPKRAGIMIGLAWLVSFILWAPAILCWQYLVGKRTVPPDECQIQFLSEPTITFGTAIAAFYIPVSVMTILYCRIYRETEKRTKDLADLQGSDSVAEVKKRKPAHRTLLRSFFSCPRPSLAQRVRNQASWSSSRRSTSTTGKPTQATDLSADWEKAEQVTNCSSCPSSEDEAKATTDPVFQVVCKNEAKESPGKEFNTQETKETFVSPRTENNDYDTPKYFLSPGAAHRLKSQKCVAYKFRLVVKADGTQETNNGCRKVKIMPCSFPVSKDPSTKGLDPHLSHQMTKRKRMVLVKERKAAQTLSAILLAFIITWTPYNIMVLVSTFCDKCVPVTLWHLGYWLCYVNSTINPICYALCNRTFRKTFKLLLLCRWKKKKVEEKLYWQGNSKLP
UniProt Q9ERZ3: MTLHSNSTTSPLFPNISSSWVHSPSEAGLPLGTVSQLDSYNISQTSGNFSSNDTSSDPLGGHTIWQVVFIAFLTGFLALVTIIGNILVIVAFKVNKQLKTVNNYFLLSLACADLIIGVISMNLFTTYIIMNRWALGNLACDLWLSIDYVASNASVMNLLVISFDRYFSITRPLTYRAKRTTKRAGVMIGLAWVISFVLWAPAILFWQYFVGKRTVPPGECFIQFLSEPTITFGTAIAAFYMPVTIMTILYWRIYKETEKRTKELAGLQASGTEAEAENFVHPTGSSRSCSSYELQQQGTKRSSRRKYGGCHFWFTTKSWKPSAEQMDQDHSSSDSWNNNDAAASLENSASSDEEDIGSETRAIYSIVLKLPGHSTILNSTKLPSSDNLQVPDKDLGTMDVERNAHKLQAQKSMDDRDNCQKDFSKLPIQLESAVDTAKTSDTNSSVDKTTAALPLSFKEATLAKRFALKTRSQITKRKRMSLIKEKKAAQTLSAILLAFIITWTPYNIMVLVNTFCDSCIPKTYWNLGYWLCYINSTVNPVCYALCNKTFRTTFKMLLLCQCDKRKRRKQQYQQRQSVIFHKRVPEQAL
UniProt Q9ERZ4: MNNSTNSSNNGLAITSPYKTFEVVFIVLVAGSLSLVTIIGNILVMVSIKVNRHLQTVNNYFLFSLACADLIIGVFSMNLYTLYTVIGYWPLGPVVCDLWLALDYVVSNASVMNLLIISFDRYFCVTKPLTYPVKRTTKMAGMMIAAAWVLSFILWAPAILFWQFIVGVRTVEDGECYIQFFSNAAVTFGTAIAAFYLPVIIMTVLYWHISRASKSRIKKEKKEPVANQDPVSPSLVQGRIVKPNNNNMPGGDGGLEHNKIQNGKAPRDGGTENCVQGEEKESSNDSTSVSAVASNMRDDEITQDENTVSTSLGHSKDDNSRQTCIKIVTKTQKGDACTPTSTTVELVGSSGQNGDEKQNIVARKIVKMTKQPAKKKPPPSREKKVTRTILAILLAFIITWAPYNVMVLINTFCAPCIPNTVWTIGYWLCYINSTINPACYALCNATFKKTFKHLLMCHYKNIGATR

The term IC50 denotes the concentration that gives 50% inhibition. Low values mean inhibition by little substance, high ones a need for much substance. On Acetylcholinesterase [1], `CCC(OC[n+]1ccn(C)c1/C=N/O)C(C)(C)C` (stereo not drawn) showed a concentration for half-maximal inhibition (IC50) of 24 µM.

For orientation: Ki means a dissociation constant, usually derived from enzyme kinetics or from competition with a known ligand. Read a high Ki as lower affinity. At Acetylcholinesterase [2], `Cn1cc[n+](COCCCc2ccccc2)c1/C=N/O` gave a Ki of 4 µM. For the same compound, the IC50 on Acetylcholinesterase [1] came to 21.2 µM; on Acetylcholinesterase [3] it was 30 µM; against Acetylcholinesterase [4], 15 µM.

For the compound `CC(C)OC[n+]1ccn(C)c1/C=N/O`, the IC50 at Acetylcholinesterase [1] is 49 µM; against Acetylcholinesterase [3], 48 µM; on Acetylcholinesterase [4], 80 µM.

In turn, `CC(OC[n+]1ccn(C)c1/C=N/O)C(C)(C)C.[Cl-]` (stereo not drawn) yielded a concentration for half-maximal inhibition (IC50) in assay [5] of 80 µM.

Compound `Cn1cc[n+](COCc2cccc3ccccc23)c1/C=N/O` showed a Ki at Acetylcholinesterase [2] of 3.5 µM. Besides, the values for the half-inhibitory concentration (IC50) against Acetylcholinesterase [1], on Acetylcholinesterase [3] and against Acetylcholinesterase [4] were 3.8 µM, 4.2 µM and 7 µM, respectively.

Regarding `Cn1cc[n+](COCC2CCCc3ccccc32)c1/C=N/O` (stereo not drawn), inhibition at Acetylcholinesterase [1] was half-maximal at 56 µM (IC50).

Compound `Cn1cc[n+](COCc2cccc3ccccc23)c1/C=N/O.[Cl-]` yielded an IC50 in assay [6] of 35 µM.

For `CCCCOC[n+]1ccn(C)c1/C=N/O`, the 50% inhibitory concentration (IC50) against Acetylcholinesterase [1] is 27.5 µM; at Acetylcholinesterase [3] it was 42 µM; on Acetylcholinesterase [4] it was 20 µM.

Turning to `CCCCCCCCOC[n+]1ccn(C)c1/C=N/O`, the IC50 at Acetylcholinesterase [1] was found to be 9.5 µM; at Acetylcholinesterase [3] it was 11 µM; against Acetylcholinesterase [4], 7 µM.

For the compound `CC(OC[n+]1ccn(C)c1/C=N/O)C1CCCCC1` (stereo not drawn), the IC50 on Acetylcholinesterase [1] was 26 µM.

`COC[n+]1ccn(C)c1/C=N/O`: the affinity at Acetylcholinesterase [2] corresponds to a Ki of 48 µM.

On to `Cn1c(/C=N/O)[n+](C)c2ccccc21`, for which the midpoint of inhibition against Acetylcholinesterase [4], the IC50, lay at 45 µM.

Turning to `Cn1cc[n+](COCC2CCCCC2)c1/C=N/O`, the IC50 on Acetylcholinesterase [1] is 42 µM.

Turning to `Cn1cc[n+](COC[n+]2ccn(C)c2/C=N/O)c1/C=N/O`, the IC50 came to 7.8 µM against Acetylcholinesterase [1] and 3 µM on Acetylcholinesterase [4].

In turn, `Cn1cc[n+](COCCCc2ccccc2)c1/C=N/O.[Cl-]` registered an IC50 in assay [6] of 22 µM.

Regarding `CC(OC[n+]1ccn(C)c1/C=N/O)C(C)(C)C` (stereo not drawn), at Acetylcholinesterase [2], affinity was put at a Ki of 7.6 µM. Also, the IC50 at Acetylcholinesterase [1] came out at 11.5 µM; at Acetylcholinesterase [3] it was 19 µM; against Acetylcholinesterase [4], 16 µM.

As for `Cn1cc[n+](COC[n+]2ccccc2/C=N/O)c1/C=N/O`, the values for the IC50 against Acetylcholinesterase [1] and at Acetylcholinesterase [4] were 38 µM and 12 µM, respectively.

`CC(CC(C)(C)C)OC[n+]1ccn(C)c1/C=N/O` (stereo not drawn) registered an IC50 against Acetylcholinesterase [1] of 32.5 µM.

Regarding `Cn1cc[n+](COCc2ccccc2)c1/C=N/O`, the figures for the concentration for half-maximal inhibition (IC50) at Acetylcholinesterase [1], at Acetylcholinesterase [3] and against Acetylcholinesterase [4] were 56 µM, 62 µM and 50 µM, respectively.

The compound `Cc1n(C)cc[n+]1COC(C)C(C)(C)C` (stereo not drawn) yielded a 50% inhibitory concentration (IC50) against Acetylcholinesterase [1] of 33 µM.

For `Cn1cc[n+](COCC(C)(C)C)c1/C=N/O`, the half-inhibitory concentration (IC50) on Acetylcholinesterase [1] worked out at 8.4 µM; on Acetylcholinesterase [3] it was 9.4 µM; against Acetylcholinesterase [4], 12 µM.

`CCCCCCOC[n+]1ccn(C)c1/C=N/O`: the concentration for half-maximal inhibition (IC50) against Acetylcholinesterase [1] turned out to be 25 µM.

The record behind these values is ChEMBL document CHEMBL1124669, “Quaternary salts of 2-[(hydroxyimino)methyl]imidazole. 2. Preparation and in vitro and in vivo evaluation of 1-(alkoxymethyl)-2-[(hydroxyimino)methyl]-3-methylimida zolium halides for reactivation of organophosphorus-inhibited acetylcholinesterases” (1989).
